Source: PubChem
GRP78 ERSR act: inducers of ER stress response in human glioma cells. U87-MG GRP78 promoter luciferase reporter, 16 h. Potency, µM, for inactives: top-dose activation, most hits filed as activators. hit rate 0.02% among 420,000; further: potency means the concentration at half of the fitted maximal effect; series mostly up to about 76 µM; % of control where 0% means no effect; nearly all actives have a fitted effect of over 35% in size
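Stably transfected U87-MG glioma cells carrying a GRP78-based luciferase sensor; 16 h compound incubation. Luminescence end-point read 10 min after Bright-Glo addition at room temperature.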
TSG101-PTAP inh: blocks PTAP/TSG101 interaction to inhibit HIV-1 budding. Q99816. 340,000 tested, under 10 active. Fluorescence polarization, FITC-PTAP peptide / Tsg101 binding. AID 493005. Potency, µM (series often up to 115 µM), inactives show at the top dose activity change, negative = inhibition, actives largely listed as inhibitors; active means well fitted inhibition curve with a large enough effect in the main read-out, with a control signal flat, not every such curve was filed as active; inconclusive means small, poorly fitted or top-dose-only effect, or effect the other way, or a change in a side signal; inactive means no such curve, though single readings can be large or run the other way; further: potency means the concentration at half of the fitted maximal effect; % of control where 0% means no effect
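Steps: Tsg101 binding domain dispensed (10 uM final), compounds pinned in DMSO, FITC-labeled PTAP-motif peptide added (50 nM final); after 20 min binding at room temperature, polarization measured.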
miR-21 reporter: raises the signal of a miR-21 reporter | Potency, µM (doses to about 38.3 µM), for inactives: top-dose reporter change, positive = more light | HeLa miR-21 FLuc reporter, luciferase, 48 h | AID 2288 | 340,000 tested, under 10 active; active = well fitted rising curve with a large enough effect; inconclusive = small, poorly fitted or top-dose-only effect; inactive = no such curve, though single readings can be large or run the other way;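 also: % of control where 0% means no effect; miR-21 action dims this reporter so a rising signal means less miR-21 action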
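HeLa miR-21-FLuc reporter line, endogenous miR-21; 2000 cells/well in DMEM/10% FBS; compound titration up to ~40uM final, 48 h, 37 degree Celsius; luciferase detection reagent, 15 min lysis, CCD luminescence.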
Nrf2 ARE act: activates Nrf2 signaling; AREc32 ARE-luciferase reporter (MCF7-derived line), luminescence, 24 h; Potency, µM (top dose mostly 46.1 µM), for the others: at the highest dose activation, hits mostly activators; hit rate 0.31% among 410,000; AID 624171; further: potency means the concentration at half of the fitted maximal effect; % of control where 0% means no effect; nearly all actives have a fitted effect of over 65% in size
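Nrf2 activation is followed as ARE-luciferase induction in the AREc32 line after one day of compound treatment; luminescence is read with Steady-Glo.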
A549 tox: counter-screen for Nrf2 inhibitors: cytotoxicity in A549 cells. hit rate 0.16% among 390,000. Potency, µM (highest dose often 46 µM), without a hit: top-dose activity change, negative = cytotoxicity, most hits filed as inhibitors. A549 ARE-Fluc cells, CellTiter-Fluor viability, 18-24 h; further: potency means the concentration at half of the fitted maximal effect; on the % scale 0 is the no-effect control and ±100 the full control effect
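A549 ARE_Fluc cells in 5% FBS OPTI-MEM were exposed to compounds in concentration-response for 18-24 h at 37 deg C. Viability was read by CellTiter-Fluor fluorescence (Ex 405/Em 525) after 30 min, before the luciferase read.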
Nrf2 inh: blocks Nrf2 signaling | A549 ARE-Fluc reporter, luciferase luminescence, 18-24 h | Potency, µM (series often up to 46 µM), inactives show top-dose activity change, negative = inhibition, most hits filed as inhibitors | hit rate 2.1% among 360,000 | AID 504444; further: potency means the concentration at half of the fitted maximal effect; on the % scale 0 is the no-effect control and ±100 the full control effect; nearly all actives have a fitted effect of over 60% in size
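Cells were seeded and rested 2 h, then exposed to compounds for 18-24 h. CellTiter-Fluor was read first as a viability measure. BugLite was added 15 min before the final luminescent read of ARE-luciferase activity in A549 cells.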
* marks the source's active call; other numbers are inactive results. An excerpt weighted towards active compounds, which were near 2.1% of everything screened. Unless noted, the call rests on the fitted dose curve; in most records, active means well fitted curve in the direction sought with a large enough effect; inconclusive means small, poorly fitted or top-dose-only effect, or another doubt; inactive means no such curve, though single readings can be large; an effect the other way counts as inactive or inconclusive.

Results for COCC(C)NCc1cc2ccc(OC)cc2nc1N1CCN(c2ccc(F)cc2)CC1 (stereo not given) ?
GRP78 ERSR act: -8%

What do the screens show for `CN(C)c1ccc(/C=C2\C=Nc3ccccc32)cc1`?
GRP78 ERSR act: 1%

How did COc1cc(-c2ccc3c(=O)c4ccccc4sc3c2)cc(OC)c1OC do in these assays?
GRP78 ERSR act: -2%; TSG101-PTAP inh: 1%; Nrf2 ARE act: inconclusive; A549 tox: 1%; Nrf2 inh: -27%

What do the screens show for `COc1cc(-c2ccc3c(=O)c4ccccc4n(C)c3c2)cc(OC)c1OC`?
GRP78 ERSR act: 5%; TSG101-PTAP inh: -9%; miR-21 reporter: -4%; Nrf2 ARE act: 1%; A549 tox: inconclusive; Nrf2 inh: 13µM*

What do the screens show for `COC(=O)c1cn(NC(=O)c2cc([N+](=O)[O-])ccc2F)c(=O)c2ccccc12`?
GRP78 ERSR act: -5%; TSG101-PTAP inh: -4%; miR-21 reporter: 30%; Nrf2 ARE act: 18%; A549 tox: -16%; Nrf2 inh: 5.2µM*

How did C[C@H]1CN([C@@H](C)CO)C(=O)c2cccc(NC(=O)Nc3ccc(C(F)(F)F)cc3)c2O[C@@H]1CN(C)C(=O)Nc1ccc(F)cc1 do in these assays?
GRP78 ERSR act: -8%; TSG101-PTAP inh: -5%; Nrf2 ARE act: -6%; A549 tox: inconclusive; Nrf2 inh: 16µM*

What do the screens show for `C[C@H](CO)N1C[C@H](C)[C@@H](CN(C)C(=O)Nc2ccc(C(F)(F)F)cc2)Oc2c(NS(=O)(=O)c3cccs3)cccc2C1=O`?
GRP78 ERSR act: -4%; TSG101-PTAP inh: -5%; Nrf2 ARE act: 0%; A549 tox: -4%; Nrf2 inh: 13%

How did C[C@H](CO)N1C[C@H](C)[C@@H](CN(C)Cc2ccc(Oc3ccccc3)cc2)Oc2c(NC(=O)C3CC3)cccc2C1=O do in these assays?
GRP78 ERSR act: -5%; TSG101-PTAP inh: -1%; Nrf2 ARE act: -5%; A549 tox: -17%; Nrf2 inh: 23µM*

How did Cc1ccc(S(=O)(=O)Nc2cccc3c2O[C@H](CN(C)C(=O)Nc2ccc(C(F)(F)F)cc2)[C@@H](C)CN([C@H](C)CO)C3=O)cc1 do in these assays?
GRP78 ERSR act: -1%; TSG101-PTAP inh: -5%; Nrf2 ARE act: 4%; A549 tox: -18%; Nrf2 inh: 18µM*

What do the screens show for `CCCCCCNc1ccc(/C=C/c2ccnc3ccccc23)cc1`?
GRP78 ERSR act: -2%

How did O=C(/C=C/c1cc(Br)ccc1F)OCC(=O)N1CCOCC1 do in these assays?
GRP78 ERSR act: -1%; TSG101-PTAP inh: -1%; Nrf2 ARE act: 11µM*; A549 tox: -3%; Nrf2 inh: -2%

How did O=C(/C=C/c1cccc(Cl)c1Cl)OCC(=O)N1CCOCC1 do in these assays?
GRP78 ERSR act: -3%; TSG101-PTAP inh: -1%; Nrf2 ARE act: 18µM*; A549 tox: 2%; Nrf2 inh: -2%

What do the screens show for `O=C(/C=C/c1cc(Br)ccc1F)OCC(=O)N1CCCC1`?
GRP78 ERSR act: -1%; TSG101-PTAP inh: 0%; Nrf2 ARE act: 11µM*; A549 tox: -1%; Nrf2 inh: 0%

What do the screens show for `COc1ccc(OC)c(/C=C/C(=O)OCC(=O)N2CCCCC2)c1`?
GRP78 ERSR act: -3%; TSG101-PTAP inh: -5%; Nrf2 ARE act: 17%; A549 tox: 1%; Nrf2 inh: 2%

What do the screens show for `CC(C)CCNC(=O)NC(=O)COC(=O)/C=C/c1cc(Br)ccc1F`?
GRP78 ERSR act: 4%; TSG101-PTAP inh: -2%; miR-21 reporter: 0%; Nrf2 ARE act: 1%; A549 tox: 2%; Nrf2 inh: -5%

Structural class, those above with bromine.
How did O=C(/C=C/c1cc(Br)ccc1F)OCC(=O)N1CCOCC1 do in these assays?
GRP78 ERSR act: -1%; TSG101-PTAP inh: -1%; Nrf2 ARE act: 11µM*; A549 tox: -3%; Nrf2 inh: -2%

What do the screens show for `O=C(/C=C/c1cc(Br)ccc1F)OCC(=O)N1CCCC1`?
GRP78 ERSR act: -1%; TSG101-PTAP inh: 0%; Nrf2 ARE act: 11µM*; A549 tox: -1%; Nrf2 inh: 0%

What do the screens show for `CC(C)CCNC(=O)NC(=O)COC(=O)/C=C/c1cc(Br)ccc1F`?
GRP78 ERSR act: 4%; TSG101-PTAP inh: -2%; miR-21 reporter: 0%; Nrf2 ARE act: 1%; A549 tox: 2%; Nrf2 inh: -5%

Next section.
How did COc1ccc2[nH]c(=O)c(CNc3cc(C)ccc3C)cc2c1 do in these assays?
GRP78 ERSR act: -3%; TSG101-PTAP inh: -7%; miR-21 reporter: -22%; Nrf2 ARE act: 2%; A549 tox: inconclusive; Nrf2 inh: 18µM*

How did COc1ccc2[nH]c(=O)c(CNc3ccc(C)cc3C)cc2c1 do in these assays?
GRP78 ERSR act: 0%; TSG101-PTAP inh: -6%; miR-21 reporter: -28%; Nrf2 ARE act: 9%; A549 tox: 4%; Nrf2 inh: 2%

What do the screens show for `CCOc1ccc(NCc2cc3cc(OC)ccc3[nH]c2=O)cc1`?
GRP78 ERSR act: 2%; TSG101-PTAP inh: -3%; miR-21 reporter: 9%; Nrf2 ARE act: 0%; A549 tox: -12%; Nrf2 inh: 26µM*

How did CCN(CC)CCOC(=O)c1ccc(N)cc1Cl do in these assays?
GRP78 ERSR act: -5%

What do the screens show for `Cc1ccc(Nc2nc3nonc3nc2Nc2cccc(C(F)(F)F)c2)cc1Cl`?
GRP78 ERSR act: 10%; miR-21 reporter: inconclusive; Nrf2 ARE act: -2%; A549 tox: 7.3µM*; Nrf2 inh: 3.3µM*

What do the screens show for `O=C(Nc1ncc(Cc2ccccc2Cl)s1)c1ccc(-c2cccc([N+](=O)[O-])c2)o1`?
GRP78 ERSR act: -5%; TSG101-PTAP inh: -3%; miR-21 reporter: -7%; Nrf2 ARE act: -1%; A549 tox: 11%; Nrf2 inh: 16µM*

Results for O=C(Nc1ccc2oc(=O)ccc2c1)c1ccc(-c2cccc(Cl)c2)o1 ?
GRP78 ERSR act: -2%; TSG101-PTAP inh: -8%; miR-21 reporter: -13%; Nrf2 ARE act: 0%; A549 tox: -9%; Nrf2 inh: 18µM*

Results for O=C(Nc1ccc2oc(=O)ccc2c1)c1ccc(-c2cccc([N+](=O)[O-])c2)o1 ?
GRP78 ERSR act: 0%; TSG101-PTAP inh: 0%; miR-21 reporter: -2%; Nrf2 ARE act: 4%; A549 tox: inconclusive; Nrf2 inh: 23µM*

How did O=C(Nc1ccc2oc(=O)ccc2c1)c1ccc(-c2ccc(Cl)cc2)o1 do in these assays?
GRP78 ERSR act: -2%; TSG101-PTAP inh: -4%; miR-21 reporter: -3%; Nrf2 ARE act: 0%; A549 tox: 10%; Nrf2 inh: -5%

How did O=C(Nc1ncc(Cc2ccccc2Cl)s1)c1ccc([N+](=O)[O-])cc1 do in these assays?
GRP78 ERSR act: 3%; TSG101-PTAP inh: -4%; miR-21 reporter: -9%; Nrf2 ARE act: 0%; A549 tox: 4%; Nrf2 inh: -14%

Results for Cc1cccc(C(=O)NCc2nc(-c3ccccc3NC(=O)C3CCCO3)oc2C)c1 (stereo not given) ?
GRP78 ERSR act: -4%

What do the screens show for `Cc1cc2c(s1)c1cnn(Cc3ccc(C(=O)O)cc3)c(=O)c1n2C`?
A549 tox: 1%; Nrf2 inh: 4%

How did N#Cc1ccc(NC(=O)COc2ccccc2C(=O)Nc2ccccc2)cc1 do in these assays?
GRP78 ERSR act: 0%

Results for COc1cc(N)c(N)cc1OC ?
GRP78 ERSR act: 4%
